# Ab-14 light chain CDR variants: yeast mating affinities

Target peptide (SARS-CoV-2 spike, HR2 region): PDVDLGDISGINAS

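The parent was found by panning a naive human phage display library on the peptide. The library (AAYL50) carries one to three amino acid substitutions per variant, with no insertions or deletions. Affinity was read by AlphaSeq, a pooled yeast mating assay with surface-displayed partners. After mating in shaken culture at 30 °C for 16 h, diploids were selected and their barcode pairs sequenced. Each replicate has its own calibration line, from reference interactions of the BCL2 family. The assay was run in three technical replicates.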

Each scFv is VH, three GGGGS repeats, VL, as in the parent Ab-14, and differs from it in the CDRs of the light chain only.
VH: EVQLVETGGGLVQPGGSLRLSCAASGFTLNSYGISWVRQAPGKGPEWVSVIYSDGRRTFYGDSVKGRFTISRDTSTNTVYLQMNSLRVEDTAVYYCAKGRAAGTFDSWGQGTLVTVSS
VL: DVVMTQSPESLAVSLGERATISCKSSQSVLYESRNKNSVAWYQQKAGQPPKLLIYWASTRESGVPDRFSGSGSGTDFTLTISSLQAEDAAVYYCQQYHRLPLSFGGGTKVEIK

The parent's light chain CDRs are KSSQSVLYESRNKNSVA, WASTRES, QQYHRLPLS; each variant's own CDRs replace them letter for letter.
This list gathers variants with a substitution at L100 (VL, numbered from residue 1).
Kd is apparent (estimated from mating counts) and averaged on the log scale over replicates with a signal. Smaller is tighter.
An entry "not detected" has no value in the source: the pair was not observed among the diploids in any replicate. This suggests poor binding but is not conclusive.

CDR-L1	CDR-L2	CDR-L3	apparent Kd	seen in
KWSQSVLYESRNKNSVA	IASTRES	QQYHRHPLS	3.8 µM	1 of 3
KSSQSVLYESYNKNSVV	WASTRES	QQYHRRPLS	not detected	0 of 3
KSSQSPLYESRNKNSVA	WASTRES	QQYHRGPLS	8.5 nM	3 of 3
KSSQSVLYESRNKNSVA	WHSTRES	QQYHRKPLS	20 µM	3 of 3
KSSQSVLYESRNKNSVE	WASTRES	QQYCRCPLS	34 µM	2 of 3
KLSQSVLYESRNKNSVA	WASTRES	YQYHRFPLS	83 nM	3 of 3
KSSQSVLYESRNKNSVA	WASTRES	WQYHRRPLI	1.2 µM	2 of 3
KSSQSVLYESRNKNSPA	WAGTRES	QQYHRHPLS	130 µM	1 of 3
KSSQSVLYESRNKVSVA	WDSTRES	QQYHRRPLS	45 µM	3 of 3
KSFQSVLYESRNKNSVM	WASTRES	QQYHRRPLS	20 µM	2 of 3
KSSQSVLYHSRNKNSVA	WASTRES	QQYHRPPES	50 µM	3 of 3
KSSQSVLYEMRNKNSVA	WASTRES	QAYHRPPLS	not detected	0 of 3
KSSQSVWYESRNKNSVA	WASTRES	QQYHHMPLS	2.5 nM	3 of 3
KSSQSVLYESRNKNSIA	WASTRES	QQYHVHPLS	74 nM	3 of 3
KSHQSVLPESRNKNSVA	WASTRES	QQYHRYPLS	2.5 µM	3 of 3
KSSQSVLYESRNKNSVA	WASTRES	QQYHRQPHS	not detected	0 of 3
KSSQSVLYWSRNKISVA	WASTRES	QQYHRTPLS	not detected	0 of 3
KSSQSVLYESYNKSSVA	WASTRES	QQYHRMPLS	3.3 nM	3 of 3
FSSQSVLYESRNKNSVA	WASPRES	QQYHRCPLS	not detected	0 of 3
KSSQSVLYESRNKNMVA	WASTREF	QQYHRDPLS	950 nM	1 of 3
KSSQSVLYESRNENSVA	MASTRES	QQYHREPLS	not detected	0 of 3
KSSQFVLYESRNKNSVA	WASSRES	QQYHRKPLS	1.1 µM	3 of 3
KDSQSVLYESRNKNSVA	WASTRES	QQYHEDPLS	not detected	0 of 3
KSSQVVLYESRNKNSVA	WASARES	QQYHRIPLS	3.3 µM	1 of 3
KSSQSDLYESRNKNSVA	WASTRES	QGYHRHPLS	21 nM	3 of 3
KSSQSVLGESRNKNSVA	WASTRHS	QQYHREPLS	69 nM	3 of 3
KSSQSWLYESRNFNSVA	WASTRES	QQYHRWPLS	1.5 nM	3 of 3
KSSQSVLYESRWKNSVA	WASTRES	QQYHRDPLS	110 nM	3 of 3
KSSQSVLYESRNKNQVA	WASTRES	QQYHRSPLN	45 µM	2 of 3
KSSQVVLYEVRNKNSVA	WASTRES	QQYHRTPLS	3.7 µM	1 of 3
KSSQSVLYESRNKNSVA	WASTRED	EQYHRMPLS	17 nM	3 of 3
KSSQSVLYESRNKPSVA	WASTRES	QQQHRCPLS	47 µM	2 of 3
KSSQSVLYESRNKNSVA	WISTRES	QQYHRRPLS	not detected	0 of 3
KSSQCVLYESRNKNSVA	WASTRES	QQYHKIPLS	not detected	0 of 3
KSSQSYLYESRNKNSSA	WASTRES	QQYHRSPLS	36 µM	2 of 3
SSSQSFLYESRNKNSVA	WASTRES	QQYHRCPLS	640 µM	1 of 3
KSSQSVLYESRNKNSVH	WASTRES	QQYHRIPWS	not detected	0 of 3
KSSQSVEYESSNKNSVA	WASTRES	QQYHRTPLS	1.6 nM	3 of 3
KSSQSVLYESRNKNSVA	WGSTRES	QQYHRVPLS	not detected	0 of 3
KSSQSVLYESPNKNSVA	WASTNES	QQYHRNPLS	1.8 µM	1 of 3
ISSQSVLYESRNKNSVA	WASTRES	QQYHRDPLS	590 nM	1 of 3
KSSQSVLYENRNWNSVA	WASTRES	QQYHRYPLS	17 nM	3 of 3
KSSQSVLYESRLKNSVA	QASTRES	QQYHRKPLS	11 µM	1 of 3
KSSQSYLYESRYKNSVA	WASTRES	QQYHRNPLS	83 nM	3 of 3
KSSQVVLYESRNKNSVA	WGSTRES	QQYHRRPLS	75 nM	3 of 3
KSSQSLLYESRFKNSVA	WASTRES	QQYHRPPLS	not detected	0 of 3
KSSQSVLYESRNKNSVA	WAFTRRS	QQYHRFPLS	not detected	0 of 3
KSSQSVLYESRNKNSVA	WASTRES	QQYCRYPLE	36 µM	2 of 3
KSSQSVLYESREKNSVA	WASPRES	QQYHRYPLS	40 µM	2 of 3
KSSQKVLYESRNKNSVA	WASTRES	QQSHRIPLS	not detected	0 of 3
KSSQSVLYESRNKNSVA	WTSTRES	QEYHRMPLS	13 µM	1 of 3
KSSQSVLYESQNKNSVA	WASTRES	QQYHRWHLS	67 nM	3 of 3
KSSQSVDYESRNKNPVA	WASTRES	QQYHRPPLS	110 nM	3 of 3
KSSQSVLYESRNKNSVA	WASTRES	QQYHHKPLP	not detected	0 of 3
KSSQSVLEESRNKNSVA	MASTRES	QQYHRMPLS	2.5 nM	3 of 3
KSSQQVLYESQNKNSVA	WASTRES	QQYHRCPLS	4.6 nM	3 of 3
KSSFSVLYESRNKNLVA	WASTRES	QQYHRGPLS	46 µM	2 of 3
KSSQSVLYESRNKNSVA	WISTRES	QQVHRGPLS	5.8 µM	2 of 3
KSSQSVLYESENKNSVA	WASTNES	QQYHRFPLS	8.5 µM	2 of 3
KSSQSVLYESRNKESVA	WASHRES	QQYHRYPLS	29 nM	3 of 3
VSSQSVTYESRNKNSVA	WASTRES	QQYHRHPLS	11 µM	1 of 3
KSSQSVLYESRNKNSVA	WASTRES	QQYHRSPLS	28 nM	2 of 3
KSSQSVLYESRNNNWVA	WASTRES	QQYHRWPLS	not detected	0 of 3

Top 9 of the variants detected in all replicates, tightest first:

{"CDR-L1": "KSSQSWLYESRNFNSVA", "CDR-L2": "WASTRES", "CDR-L3": "QQYHRWPLS", "apparent Kd": "1.5 nM", "seen in": "3 of 3"}
{"CDR-L1": "KSSQSVEYESSNKNSVA", "CDR-L2": "WASTRES", "CDR-L3": "QQYHRTPLS", "apparent Kd": "1.6 nM", "seen in": "3 of 3"}
{"CDR-L1": "KSSQSVWYESRNKNSVA", "CDR-L2": "WASTRES", "CDR-L3": "QQYHHMPLS", "apparent Kd": "2.5 nM", "seen in": "3 of 3"}
{"CDR-L1": "KSSQSVLEESRNKNSVA", "CDR-L2": "MASTRES", "CDR-L3": "QQYHRMPLS", "apparent Kd": "2.5 nM", "seen in": "3 of 3"}
{"CDR-L1": "KSSQSVLYESYNKSSVA", "CDR-L2": "WASTRES", "CDR-L3": "QQYHRMPLS", "apparent Kd": "3.3 nM", "seen in": "3 of 3"}
{"CDR-L1": "KSSQQVLYESQNKNSVA", "CDR-L2": "WASTRES", "CDR-L3": "QQYHRCPLS", "apparent Kd": "4.6 nM", "seen in": "3 of 3"}
{"CDR-L1": "KSSQSPLYESRNKNSVA", "CDR-L2": "WASTRES", "CDR-L3": "QQYHRGPLS", "apparent Kd": "8.5 nM", "seen in": "3 of 3"}
{"CDR-L1": "KSSQSVLYENRNWNSVA", "CDR-L2": "WASTRES", "CDR-L3": "QQYHRYPLS", "apparent Kd": "17 nM", "seen in": "3 of 3"}
{"CDR-L1": "KSSQSVLYESRNKNSVA", "CDR-L2": "WASTRED", "CDR-L3": "EQYHRMPLS", "apparent Kd": "17 nM", "seen in": "3 of 3"}

For reference, the parent read 4.4 nM as the reference entry and 48 nM as a member of this library.
Three control strains display no target. For library AAYL50, 18% of the pairings with them gave a signal, with a median of 15 µM and one signal in twenty below 970 nM, so weak values seen in few replicates may be background.

Values reported by Engelhart et al. 2022, doi:10.1038/s41597-022-01779-4 (FLAb copy).